Assay outcomes deposited in PubChem by Broad Institute.
Dyrk1A ADPGlo: rat Dyrk1A kinase inhibitors, primary screen, biochemical, single point, plate reader; Dual specificity tyrosine-phosphorylation-regulated kinase 1A (Rattus norvegicus), Q63470; ADP-Glo luminescence, NFATc1 peptide; inhibition, % at 12.5 µM; actives 0.43% (n = 310,000); in the data active = inhibition above about 50%
CAL PDZ FP-1: untagged CAL PDZ binding inhibitors, primary screen, biochemical, fluorescence polarization, HTS; Golgi-associated PDZ and coiled-coil motif-containing protein (Homo sapiens), Q9HD26; purified CAL PDZ, TMR-peptide fluorescence polarization, 1 h; actives 0.92% (n = 300,000); AID 602252, 2012; inhibition, % at 24.9 µM;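 active = mean inhibition of at least 30% with at least half of replicates also reaching 30%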
Yeast UUG start-1: modulators of start codon recognition fidelity in yeast. activity score, % at 18.7 µM. S. cerevisiae UUG-firefly luciferase reporter, luminescence/redox ratio. 350,000 compounds, 0.13% hits;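 active means replicate mean at a twofold rise or more, about +100% in these data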;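 further: firefly luciferase made from a UUG start codon reports start codon fidelity; reporter light over untreated wells divided by growth signal over untreated wells; some hits fall short of that in this replicate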
CAL PDZ FP-2: CAL PDZ peptide-binding inhibitors, primary screen, biochemical, fluorescence polarization, Cer-tagged CAL PDZ, HTS; inhibition, % at 20 µM; purified CAL PDZ, TMR-peptide fluorescence polarization, 1 h; actives 0.02% (n = 330,000); Golgi-associated PDZ and coiled-coil motif-containing protein (Homo sapiens), Q9HD26;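 active = highest replicate inhibition of at least 40%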
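Material – purified CerCALP PDZ construct · Detection – FP readout, S and P plane fluorescence · Measure – percent inhibition from loss of millipolarization · Controls – unlabelled peptide for full inhibition, DMSO wells as neutral · Probe or stimulus – TMR-labelled reporter peptide T*-PRC34 bound in PDZ groove · Times – 1 h at RT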
dFosB activator: activators of delta FosB homodimer, primary screen, biochemical, fluorescence polarization, TAMRA-CDK5 oligo, single point. Protein FosB (Mus musculus), P13346. purified delta FosB; percent of positive-control signal above neutral wells. activation, % at 25 µM. actives 0.99% (n = 340,000). AID 493131, 2011;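 active = mean activation above about 17%, with every replicate also reaching it, limit read from the data, passing the limit was not always enough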
CDK5 p35 inh: inhibitors of human CDK5/p35 kinase, primary screen, biochemical, single concentration | Recombinant CDK5/p35, ADP-Glo luminescence, 60 min | inhibition, % at 10 µM | actives 0.01% (n = 330,000);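 active = highest replicate inhibition of at least 50% and at least 75% of replicates reaching 50%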
Yeast UUG start-2: enhancers of UUG start codon usage in yeast, dose response, S. cerevisiae, UUG firefly luciferase, cherry-pick, set 2. activation, % at 38 µM. shares compounds with Yeast UUG start-1. luminescence, 4 h; 100% means double the DMSO signal. 540 tested, under 10 active;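 active = signal increase whose fitted curve reaches an absolute level of 40 at a concentration under 10 µM; inactive = activity opposite to the expected increase, or the rest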
Of the large screens only hits and unclear results are named; the others gave an inactive call (follow-up assays come after a bar, where they were run). An excerpt weighted towards active compounds, which were near 1.7% of everything screened.

Cc1csc(NC(=O)c2ccco2)n1	none
O=C(O)Cc1csc(NC(=O)c2ccco2)n1	Yeast UUG start-1 373.0 (no result: CAL PDZ FP-1) | Yeast UUG start-2 inactive
CCC(=O)N(C)C[C@@H]1Oc2cc(C#CC3CC3)ccc2S(=O)(=O)N([C@@H](C)CO)C[C@H]1C	none (no result: Dyrk1A ADPGlo, CAL PDZ FP-1, CAL PDZ FP-2, dFosB activator, CDK5 p35 inh)
CN(C[C@H]1[C@H](c2ccccc2)[C@@H](CO)N1C(=O)c1ccccc1)C(=O)C1CC1	Yeast UUG start-1 155.6 (no result: Dyrk1A ADPGlo, CAL PDZ FP-1, CAL PDZ FP-2, dFosB activator, CDK5 p35 inh) | Yeast UUG start-2 inactive
O=C(C[C@@H]1C=C[C@H](NC(=O)Nc2cccc(F)c2)[C@@H](CO)O1)NCC1CC1	none (no result: Dyrk1A ADPGlo, CAL PDZ FP-1, CAL PDZ FP-2, dFosB activator, CDK5 p35 inh)
c1cn2c(NC3CCCCC3)c(-c3ccc(SC4CCCCC4)cc3)nc2cn1	none
CCN(CC)c1ccc(-c2nc3cnccn3c2NC2CCCC2)cc1	Yeast UUG start-1 181.3 | Yeast UUG start-2 inactive
O=C(NCC[C@H]1CC[C@H](NS(=O)(=O)c2cccc(F)c2)[C@H](CO)O1)C1CCCC1	none (no result: Dyrk1A ADPGlo, CAL PDZ FP-1, CAL PDZ FP-2, dFosB activator, CDK5 p35 inh)
Cc1ccc(S(=O)(=O)N[C@@H]2CC[C@H](CCNS(=O)(=O)Cc3ccccc3)O[C@@H]2CO)cc1	none (no result: Dyrk1A ADPGlo, CAL PDZ FP-1, CAL PDZ FP-2, dFosB activator, CDK5 p35 inh)
O=C(Nc1ccccc1F)N[C@H]1CC[C@H](CCNS(=O)(=O)c2ccc(F)cc2)O[C@H]1CO	Yeast UUG start-1 153.5 (no result: Dyrk1A ADPGlo, CAL PDZ FP-1, CAL PDZ FP-2, dFosB activator, CDK5 p35 inh) | Yeast UUG start-2 inactive
Cc1ccc(S(=O)(=O)N[C@H]2CC[C@H](CCNS(=O)(=O)Cc3ccccc3)O[C@@H]2CO)cc1	Yeast UUG start-1 148.1 (no result: Dyrk1A ADPGlo, CAL PDZ FP-1, CAL PDZ FP-2, dFosB activator, CDK5 p35 inh) | Yeast UUG start-2 inactive
O=C(NCC[C@@H]1CC[C@H](NS(=O)(=O)c2cccc(F)c2)[C@H](CO)O1)C1CCCC1	Yeast UUG start-1 145.2 (no result: Dyrk1A ADPGlo, CAL PDZ FP-1, CAL PDZ FP-2, dFosB activator, CDK5 p35 inh) | Yeast UUG start-2 inactive
Cc1ccc(-c2cnc3c(c2)C(=O)N([C@H](C)CO)C[C@H](C)[C@@H](CN(C)C(=O)Cc2ccccc2)O3)cc1	none (no result: Dyrk1A ADPGlo, CAL PDZ FP-1, CAL PDZ FP-2, dFosB activator, CDK5 p35 inh)
CCn1c(CCNC(=O)c2ccc(OC)cc2)nnc1SCC(=O)Nc1ccccc1F	Yeast UUG start-1 315.9 | Yeast UUG start-2 inactive
Cc1noc(C)c1NC(=O)N(C)C[C@H]1Oc2ccc(NS(=O)(=O)c3c(C)noc3C)cc2C(=O)N([C@@H](C)CO)C[C@H]1C	none (no result: Dyrk1A ADPGlo, CAL PDZ FP-1, CAL PDZ FP-2, dFosB activator, CDK5 p35 inh)
CCc1[nH]c(C)c(C(C)=O)c1C	Yeast UUG start-1 415.5 | Yeast UUG start-2 inactive
CC(=O)c1c(C)[nH]c(C)c1C(C)=O	none (no result: Dyrk1A ADPGlo)
CCOc1ccc(C(=O)NCC(=O)OCC(=O)c2ccc3c(c2)-c2ccccc2C3)cc1	none (no result: Yeast UUG start-1)
COc1ccccc1C(=O)NCC(=O)OCC(=O)c1ccc2c(c1)-c1ccccc1C2	Yeast UUG start-1 551.0 | Yeast UUG start-2 inactive
C[C@H]1CN([C@@H](C)CO)C(=O)c2cc(NC(=O)C3CC3)ccc2O[C@@H]1CN(C)Cc1ccc(C(F)(F)F)cc1	none (no result: Dyrk1A ADPGlo, CAL PDZ FP-1, CAL PDZ FP-2, dFosB activator, CDK5 p35 inh)
CCN(CC)CCNC(=O)Cn1nc(Cc2cccnc2)c2ccccc2c1=O	none (no result: CAL PDZ FP-1)
Cn1nc(C(=O)NCc2ccccc2)c2ccccc2c1=O	none (no result: Dyrk1A ADPGlo)
CCN(CC)CCNC(=O)C(C)c1nn(C)c(=O)c2ccccc12 (configuration not stated)	none | Yeast UUG start-2 inactive
CCCCn1nc(CC(=O)NCCN(CC)CC)c2ccccc2c1=O	none (no result: Yeast UUG start-1) | Yeast UUG start-2 inactive
COCC(=O)Nc1ccc2c(c1)C(=O)N(C)[C@H]1CC[C@H](CC(=O)NCc3cccc(F)c3)O[C@H]1CO2	none (no result: Dyrk1A ADPGlo, CAL PDZ FP-1, CAL PDZ FP-2, dFosB activator, CDK5 p35 inh)
CO[C@H]1CN(C)C(=O)c2cc(NC(=O)C3CC3)ccc2OC[C@@H](C)N(Cc2cccc(F)c2)C[C@@H]1C	none (no result: Dyrk1A ADPGlo, CAL PDZ FP-1, CAL PDZ FP-2, dFosB activator, CDK5 p35 inh)
CN(C)c1ccc(/C=C/c2ccc3ccccc3[n+]2C)cc1	Yeast UUG start-1 127.2, dFosB activator 95.6 | Yeast UUG start-2 inactive
